Results published in article PMC4192486.

System: P02766
Assay: aggregation followed by turbidity at 330 nm; 3.5 μM full-length TTR, quiescent, 200 mM sodium acetate, 100 mM KCl, pH 4.4, 37 °C, 72 h; without or with 35 μM heparin; also TEM
Conditions: other: aggregation followed by turbidity at 330 nm

K35L-TTR mutant
extent of aggregation (turbidity at 330 nm) against WT-TTR: > 2 fold
